We go through two compounds from ChEMBL document CHEMBL4359932, “Discovery and optimization of a series of small-molecule allosteric inhibitors of MALT1 protease” (Bioorg Med Chem Lett, 2019).

Structures are written as SMILES.

Data set [1] is described as follows: Stability in mouse plasma assessed as remaining compound measured after 7 hrs. Conditions: read-out: Stability. The format is ADME, cell-free.
A short description of data set [2]: Stability in mouse plasma assessed as remaining compound measured after 4 hrs. The class given is ADME, cell-free. Conditions: read-out: Stability.
A short description of data set [3]: Clearance in mouse hepatocytes. The format is ADME, cell-based, Hepatocyte.
Data set [4] in a line: Clearance in mouse liver microsomes. The format is ADME, Microsome. Conditions: read-out: CLH.

As for `COc1ccc(NC(=O)C2CCN(c3ncccc3C)C(C)C2)cc1Cl` (centres undefined), the remaining at 7 h in data set [1] worked out at 15%.
For the compound `COc1ccc(NC(=O)[C@@H]2CCN(c3ncccc3Br)[C@H](C)C2)cc1Cl`, the remaining at 4 h in data set [2] came to 40%. In data set [3], the CLH worked out at 31 µL/min/mg. Further, the microsomal CLint in data set [4] came to 262 µL/min/mg.
